Consider one compound from patent US9371305B2, “Deuterated benzopyran compounds and application thereof” (Guangzhou Institutes of Biomedicine And Health, Chinese …, priority 2012, dated 2016).

For the assay, the system named is generation of PGE2 in the whole blood. Briefly: whole blood assay, lipopolysaccharide-induced yield of PGE2 in heparin blood (ELISA). The following applies: human whole blood COX enzyme activity test. The format is cell-based. The method, then: Deuterated benzopyran compounds of different concentrations were uniformly mixed with ovine COX-1 and human recombinant COX-2 for incubation for 15 min, respectively, and then the system was added with Heme and ADHP for incubation for another 2 min and finally added with substrate arachidonic acid. The light emission intensity of the reaction product at 595 nm was immediately detected by a microplate reader under exciting light at 530 nm. […] In the whole blood assay, venous blood of healthy donors was collected with a non-anticoagulation tube and a heparin tube, deuterated benzopyran compounds of different concentrations (1×10^−8 to 1×10^−4) were mixed with the blood in the non-anticoagulation tube, the supernatant was collected after the blood was coagulated and then measured by ELISA in terms of the yield of TXB2; and deuterated benzopyran compounds of different concentrations (1×10^−8 to 1×10^−4) were mixed with the blood in the heparin tube, the mixture was added with lipopolysaccharide until the final concentration was 100 μg/mL, mixed uniformly and then kept stand overnight at 37° C., the supernatant was collected by centrifugation and then measured by ELISA in terms of the yield of PGE2. […]
Background: An ELISA detects its analyte on a solid surface through an enzyme-linked reagent.

For `[2H]C([2H])([2H])c1cc(Cl)c2c(c1)C=C(C(=O)O)C(C(F)(F)F)O2` (stereo not shown) [GIBH-1018, 8-chloro-6-(methyl-D3)-2-(trifluoromethyl)-2H-chromene-3-carboxylic acid], the “selectivity to the inhibition of COX-2 enzyme of blood cells” value is on record as “better selectivity”.
